The experiment relates to human platelets. The experiment is described as follows: Aggregation of ADP-treated platelets separated from plasma proteins by the synthetic peptide-albumin conjugate, in the absence of fibrinogen. As to conditions: 10^8 platelets, ten micromoles of ADP, no plasma proteins; 2.5 micromoles of conjugate. The experiment is classed as cell-based. The procedure:
In this experiment, a synthetic clumping molecule formed of a human serum albumin backbone having a plurality of sulfhydral-linked cysteinyl heptadecapeptides attached thereto was tested to determine whether it would cause aggregation of platelets. Ten micromoles of ADP was added to 10^8 platelets which had been separated from the plasma proteins.

Regarding “human serum albumin: negative control: human serum albumin prepared the same way as the conjugate but lacking the heptadecapeptide side groups [reference compound]”, the “aggregation of platelets caused by the substance” value is “not to aggregate the platelets”.

These data come from patent publication US4661471A, “Method of inhibiting and inducing human platelet aggregation” (New England Deaconess Hospital, priority 1984, dated 1987).
